Among the data in patent publication US20220387491A1, “METHODS OF MAKING CELLULAR THERAPIES” (Secura Bio, Inc., priority 2019, published 2022) are IC50 values, retold here.

The chains behind the UniProt entries cited, without tags or fusion partners. Where a name states a change or a piece, a line headed by the entry shows the natural chain unless it says otherwise.
UniProt O00329: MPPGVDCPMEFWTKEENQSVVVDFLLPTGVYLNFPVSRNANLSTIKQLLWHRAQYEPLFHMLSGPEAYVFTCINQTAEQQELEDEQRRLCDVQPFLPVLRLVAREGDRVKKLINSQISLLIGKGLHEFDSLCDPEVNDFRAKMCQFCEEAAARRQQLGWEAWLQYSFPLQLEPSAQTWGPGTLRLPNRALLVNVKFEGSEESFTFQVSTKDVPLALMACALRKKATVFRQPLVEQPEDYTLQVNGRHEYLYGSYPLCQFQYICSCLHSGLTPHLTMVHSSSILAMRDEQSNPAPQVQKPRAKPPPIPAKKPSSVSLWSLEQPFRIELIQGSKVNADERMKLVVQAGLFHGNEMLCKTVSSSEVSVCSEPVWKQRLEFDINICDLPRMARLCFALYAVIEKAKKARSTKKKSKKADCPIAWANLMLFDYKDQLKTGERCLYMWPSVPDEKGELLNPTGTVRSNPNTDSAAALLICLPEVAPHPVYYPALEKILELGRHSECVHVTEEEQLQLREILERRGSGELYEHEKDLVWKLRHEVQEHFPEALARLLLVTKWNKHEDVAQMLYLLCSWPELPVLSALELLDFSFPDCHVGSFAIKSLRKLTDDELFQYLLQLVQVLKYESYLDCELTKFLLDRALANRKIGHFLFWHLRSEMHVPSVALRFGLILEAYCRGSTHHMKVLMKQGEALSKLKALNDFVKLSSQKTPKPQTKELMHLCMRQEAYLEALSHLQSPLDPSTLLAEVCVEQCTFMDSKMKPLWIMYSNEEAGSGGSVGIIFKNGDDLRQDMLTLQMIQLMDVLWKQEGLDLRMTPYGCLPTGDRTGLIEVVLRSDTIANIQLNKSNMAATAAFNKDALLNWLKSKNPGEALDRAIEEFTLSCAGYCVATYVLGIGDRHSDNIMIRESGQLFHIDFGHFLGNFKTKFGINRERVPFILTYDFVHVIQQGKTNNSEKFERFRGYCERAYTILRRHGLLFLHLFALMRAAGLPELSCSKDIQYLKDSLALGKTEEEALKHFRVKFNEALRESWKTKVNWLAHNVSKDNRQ

This assay addresses PI3K-δ (Homo sapiens, UniProt O00329). In words: Whole blood assay, p-Akt S473 in LPS-stimulated monocytes. The class given is cell-based. Set-up: from tissue; host or cells: whole blood; LPS-stimulated monocytes (gated by flow cytometry). The settings on record: inhibition of p-Akt in LPS-stimulated monocytes, read-out: PI3Kδ IC50.

As usually defined, the IC50 is the concentration needed to halve the response being measured. As for `C[C@H](NC(=O)c1c(N)nn2cccnc12)c1cc2cccc(C#Cc3cnn(C)c3)c2c(=O)n1-c1ccccc1` [IPI-549, 2-amino-N-[(1S)-1-[8-[2-(1-methylpyrazol-4-yl)ethynyl]-1-oxo-2-phenylisoquinolin-3-yl]ethyl]pyrazolo[1,5-a]pyrimidine-3-carboxamide], the half-maximal inhibitory concentration (IC50) came out at 12 ± 0.5 µM.
